Results: publication PMC6613765 (Journal of Virology, 2019)

Tested on: DBT cells
Conditions: read-out: MHV-A59 CC50

Monensin sodium
CC50: > 20 µM
